# Yeast mating assay 2: variants of the scFv Ab-95

Source: Engelhart et al. 2022 (doi:10.1038/s41597-022-01779-4), MIT Lincoln Laboratory and A-Alpha Bio; data file from the FLAb repository.

Antigen: PDVDLGDISGINAS, a 14-residue peptide of the SARS-CoV-2 spike HR2 region.

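The starting antibody came from a phage panning campaign against this peptide. AAYL52 was designed without a model: most single CDR substitutions and a random sample of double and triple ones. The assay is AlphaSeq: two haploid yeast populations carry antibody and antigen on their surface. Binding brings cells together so that they mate, and sequencing counts the barcode pairs among the diploids. Read counts were normalised to the haploid input and turned into Kd by a linear fit to BCL2-family pairs of known affinity, for each replicate. Each pool was mated in three replicate cultures.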

Parent: Ab-95, a human scFv built as VH, three GGGGS repeats, VL. Only the CDRs of the light chain vary.
VH: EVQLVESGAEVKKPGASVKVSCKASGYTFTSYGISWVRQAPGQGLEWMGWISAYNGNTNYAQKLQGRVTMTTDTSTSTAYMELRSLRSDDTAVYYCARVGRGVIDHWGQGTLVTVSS
VL: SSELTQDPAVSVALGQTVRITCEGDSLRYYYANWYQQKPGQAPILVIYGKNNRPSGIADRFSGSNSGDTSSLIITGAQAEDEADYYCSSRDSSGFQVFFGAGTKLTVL

Variants are written as CDR1, CDR2 and CDR3 of the light chain (limits as in the source). Parent: EGDSLRYYYAN, GKNNRPS, SSRDSSGFQVF.
The read-out is the apparent dissociation constant on a log10 scale (nM): the lower, the stronger.
The mean shown is taken over the replicates in which the pair was detected.
A pair that was not seen in that replicate is written "ND"; this usually means weak binding, but a binder can also be missed.

CDR-L1	CDR-L2	CDR-L3	log10 Kd, replicates	mean log10 Kd (nM)	empty controls
EGDSLQYYYAN	GQNNRPS	SSEDSSGFQVF	3.14 / 3.32 / 2.51	2.99	5/9 (4.38)
EGLSQRYYYAN	GKNNGPS	SSRDSSGFQVF	ND / ND / 2.89	2.89	3/9 (3.82)
EGDSLRYYYAN	GKNNRCS	SSRDSRDFQVF	1.93 / 1.99 / 1.89	1.94	3/9 (4.18)
AGDSLRYYYAN	GKHNDPS	SSRDSSGFQVF	3.69 / 4.83 / 3.24	3.92	6/9 (4.33)
PGDSLRYPYAN	GKNNRPI	SSRDSSGFQVF	3.34 / 3.44 / ND	3.39	3/9 (3.73)
EGDSLRYYYAD	GKNNRTS	SSRDSSGFQFF	4.99 / 4.63 / ND	4.81	6/9 (4.03)
EGDSLCYYYAN	GKNNRPA	SSWDSSGFQVF	2.40 / 2.64 / 1.97	2.34	1/9 (3.90)
EADSLRYYYAN	GKNNRPM	SSRDSSGGQVF	1.73 / 2.24 / 2.44	2.14	0/9
EQDSLRYYIAN	GKNNRPS	SSRDSSGFQVF	3.44 / 3.40 / 2.52	3.12	3/9 (4.42)
EGDYKRYYYAN	GKNNRPS	SSNDSSGFQVF	ND / ND / ND	ND	1/9 (4.41)
EGDSLRYYYAN	GKNNRLS	SKRRSSGFQVF	2.66 / 2.71 / 2.29	2.55	2/9 (3.83)
EGDSLRQYYAN	GKNNRES	SSRDSSGVQVF	ND / ND / 3.32	3.32	3/9 (4.90)
EGDSLRYYYAN	GKTNRPS	SSRDMSGFQVF	ND / 4.58 / ND	4.58	0/9
EGDSLRYYYAN	GKDNLPI	SSRDSSGFQVF	4.27 / 4.00 / 4.22	4.16	5/9 (4.06)
EGHSLRYYYPN	GKNNRPS	SSRDSSGYQVF	1.72 / 1.45 / 0.66	1.27	2/9 (4.08)
EGDSLRYYYAN	GKNNEPS	WSRDSSGFQVM	ND / ND / ND	ND	4/9 (3.40)
EGDSLAYYYAN	GKNNRPF	SSRDSPGFQVF	3.51 / 2.85 / 4.53	3.63	4/9 (4.56)
LGDSLVYYYAN	GKNNRPS	SERDSSGFQVF	ND / 3.67 / ND	3.67	3/9 (4.53)
ELDSLRYYQAN	GKNNRPS	SSRDSSGFQPF	2.98 / 2.75 / 4.08	3.27	3/9 (4.29)
EGDSLRYYYAN	GKNNRPS	SSRDSSHFCFF	ND / 4.15 / 3.86	4.01	1/9 (3.20)
EGDSLRYYYAN	GKNNRPS	SSRDSEQFQKF	3.46 / ND / ND	3.46	1/9 (2.34)
EGDSLRYYYFN	GKNNNPS	SSFDSSGFQVF	3.04 / 3.17 / 3.29	3.17	2/9 (5.02)
EGVSYRYYYAY	GKNNRPS	SSRDSSGFQVF	3.65 / 2.34 / 4.08	3.35	2/9 (4.21)
EGDSLRYYYIN	GKNNRPS	KSRDSSLFQVF	2.11 / 2.25 / 1.99	2.12	1/9 (3.76)
EGDSGLYYYAN	GKNNRTS	SSRDSSGFQVF	2.67 / ND / ND	2.67	2/9 (3.41)
EGDSLRYYWAN	GKNNRNS	SSRDSAGFQVF	ND / ND / ND	ND	2/9 (3.90)
EGDSLRYYYAN	GINNRPS	SSRDSSGFINF	3.37 / 3.63 / ND	3.50	4/9 (4.39)
EGDDLRYGYAN	GKNNRPS	SSRDSSGFDVF	2.42 / 1.55 / 1.53	1.83	1/9 (4.22)
EPDSLRYYYAN	GKNNRPS	SSRWSSGFQVD	3.96 / ND / 4.52	4.24	3/9 (4.26)
EGDSLRYYYAN	GKNNRPS	GSDDSAGFQVF	2.90 / 3.15 / 3.30	3.12	6/9 (4.46)
EGDPHRYYYAN	EKNNRPS	SSRDSSGFQVF	ND / ND / ND	ND	1/9 (3.08)
EEDSLRYYYAN	GKNNRPS	CSRCSSGFQVF	3.77 / ND / 3.86	3.82	1/9 (3.32)
ETDCLRYYYAN	GKNNRPH	SSRDSSGFQVF	1.84 / 1.53 / 0.98	1.45	5/9 (4.14)
EYDSLRYYRAN	GKNNRDS	SSRDSSGFQVF	4.55 / 3.74 / ND	4.15	2/9 (3.86)
EFDSLRYNYAN	GKNNRPA	SSRDSSGFQVF	1.34 / 1.70 / 0.93	1.32	3/9 (3.38)
EGDSLRYYYAN	GSNNRPS	SSWDSSGTQVF	3.83 / 3.15 / 2.38	3.12	3/9 (3.98)
EGDSLRYYYAN	GKNNRCS	SSRDSSAFQVE	3.46 / ND / ND	3.46	1/9 (2.37)
EGDSLRYYYMN	KKNNRPS	SSRDSSGFQVF	ND / ND / ND	ND	1/9 (3.56)
QGDSLRYYYAN	GKNNRPS	SSRDSSNFQVF	2.97 / 2.75 / 2.15	2.62	3/9 (4.15)
EGDSLRYYYAN	GKNVRPS	SSRDDSSFQVF	4.64 / 4.05 / ND	4.35	3/9 (4.02)
EGCSLRYYYAN	GKNNRPS	SSRDSSGVQVR	4.66 / ND / 4.16	4.41	3/9 (4.53)
EGDSLRYYYAN	FKNNRPS	SSRDSHGFQVW	3.60 / ND / ND	3.60	0/9
EGDSFRYPYAN	GKNNRPS	SSRDSSGFQVF	2.22 / 2.19 / 2.05	2.15	0/9
EGDHLRYYYAN	GKNNRPS	SSYDSSGFQVN	ND / 2.30 / 2.72	2.51	2/9 (3.23)
EGDPARYYYAN	GHNNRPS	SSRDSSGFQVF	3.28 / 4.03 / 3.61	3.64	5/9 (3.97)
EGDSLRYYYAN	GNHYRPS	SSRDSSGFQVF	4.08 / 3.76 / 2.97	3.60	2/9 (5.16)

Extract of 7 entries:

{"CDR-L1": "EGDSLRYYYAN", "CDR-L2": "GKDNLPI", "CDR-L3": "SSRDSSGFQVF", "log10 Kd, replicates": "4.27 / 4.00 / 4.22", "mean log10 Kd (nM)": "4.16", "empty controls": "5/9 (4.06)"}
{"CDR-L1": "ELDSLRYYQAN", "CDR-L2": "GKNNRPS", "CDR-L3": "SSRDSSGFQPF", "log10 Kd, replicates": "2.98 / 2.75 / 4.08", "mean log10 Kd (nM)": "3.27", "empty controls": "3/9 (4.29)"}
{"CDR-L1": "EGDSLRYYYAN", "CDR-L2": "GKNNRPS", "CDR-L3": "GSDDSAGFQVF", "log10 Kd, replicates": "2.90 / 3.15 / 3.30", "mean log10 Kd (nM)": "3.12", "empty controls": "6/9 (4.46)"}
{"CDR-L1": "EGDHLRYYYAN", "CDR-L2": "GKNNRPS", "CDR-L3": "SSYDSSGFQVN", "log10 Kd, replicates": "ND / 2.30 / 2.72", "mean log10 Kd (nM)": "2.51", "empty controls": "2/9 (3.23)"}
{"CDR-L1": "PGDSLRYPYAN", "CDR-L2": "GKNNRPI", "CDR-L3": "SSRDSSGFQVF", "log10 Kd, replicates": "3.34 / 3.44 / ND", "mean log10 Kd (nM)": "3.39", "empty controls": "3/9 (3.73)"}
{"CDR-L1": "EGDDLRYGYAN", "CDR-L2": "GKNNRPS", "CDR-L3": "SSRDSSGFDVF", "log10 Kd, replicates": "2.42 / 1.55 / 1.53", "mean log10 Kd (nM)": "1.83", "empty controls": "1/9 (4.22)"}
{"CDR-L1": "EQDSLRYYIAN", "CDR-L2": "GKNNRPS", "CDR-L3": "SSRDSSGFQVF", "log10 Kd, replicates": "3.44 / 3.40 / 2.52", "mean log10 Kd (nM)": "3.12", "empty controls": "3/9 (4.42)"}

Three control strains display no target. For library AAYL52, 28% of the pairings with them gave a signal, with a median of 3.91 and one signal in twenty below 2.90, so weak values seen in few replicates may be background. The control count says in how many pairings with the empty strains this scFv gave a signal, with their mean in brackets.
In this assay the parent's reference entry averaged 2.31; its copy inside this library read 2.25.